What was measured:
Details in all cases: Canis lupus familiaris
[1] = tested on: Thromboxane-A synthase (Canis familiaris); assay: Ex vivo […] (TXA2 synthase) inhibitory activity after 5 hr of oral dosing (1 mg/kg) in the dog
[2] = tested on: Thromboxane-A synthase (Canis familiaris); assay: Ex vivo […] (TXA2 synthase) inhibitory activity after 8 hr of oral dosing (1 mg/kg) in the dog
[3] = tested on: Thromboxane-A synthase (Canis familiaris); assay: Ex vivo […] (TXA2 synthase) inhibitory activity after 24 hr of oral dosing (1 mg/kg) in the dog

- inhibition [1]: 53.5%
- inhibition [2]: 49.1%
- inhibition [3]: 41.1%
Structure (SMILES): Cc1ccc(OC(C)(C)C2OCC(C/C=C\CCC(=O)O)C(c3cccnc3)O2)c([N+](=O)[O-])c1 (stereo in doubt; 7x)
